In PubChem BioAssay AID720506 (National Center for Advancing Translational Sciences (NCATS), 2013):
The whole screen tested about 2,300 compounds, of which about 95 (4%) were called active. Listed are the inconclusive results; actives and inactives stand elsewhere. Calls come from the whole dose curve; as a rule, active = well fitted activation curve with a large enough effect; inconclusive = small, poorly fitted or top-dose-only effect; inactive = flat fitted curve, though single readings scatter.

The chains behind the UniProt entries cited, without tags or fusion partners.
UniProt P35462, whole entry, looked up: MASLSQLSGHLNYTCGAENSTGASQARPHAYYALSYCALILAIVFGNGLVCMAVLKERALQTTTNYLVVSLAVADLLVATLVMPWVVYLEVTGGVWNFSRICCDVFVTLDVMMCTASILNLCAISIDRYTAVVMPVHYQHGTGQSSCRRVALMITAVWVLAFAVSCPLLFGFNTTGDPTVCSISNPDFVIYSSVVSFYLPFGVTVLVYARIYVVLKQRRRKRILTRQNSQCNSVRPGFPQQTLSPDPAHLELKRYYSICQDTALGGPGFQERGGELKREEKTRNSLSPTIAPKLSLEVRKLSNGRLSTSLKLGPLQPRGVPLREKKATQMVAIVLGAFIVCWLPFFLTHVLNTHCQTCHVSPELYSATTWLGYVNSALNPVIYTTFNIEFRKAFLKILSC

molecular target: D(3) dopamine receptor (Homo sapiens) (UniProt P35462); assay: qHTS of D3 Dopamine Receptor Agonist: D3 Dopamine Receptor B-arrestin Agonist Confirmatory Assay; settings: DiscoveRx D3 beta-arrestin cells, luminescence, 90 min; note: nearly all actives have a fitted effect of over 70% in size
From the text: D3 DARs represent a very important target for the treatment of several neuropsychiatric disorders. Indeed, one of the most promising therapeutic applications for the D3 DAR is in the area of addiction and related disorders. […] These findings have been observed with a number of addictive substances including cocaine, amphetamine, nicotine, and alcohol. […] Increased D3 DAR activity can thus lead to neuroprotective and neurorestorative actions in the CNS. […] This assay is used to confirm the activity of the identified D3 dopamine receptor agonist. Activation is the desired outcome for this assay. NIH Molecular Libraries Probe Production Centers Network [MLPCN] NIH Chemical Genomics Center [NCGC] MLPCN Grant: NS064831 Assay Submitter (PI): David Sibley
Freshly passaged DiscoveRx D3 cells are plated in 1536 well white, solid bottom plates at a density of 1500 cells/well in 3microl of complete media. After an overnight incubation at 37 degrees C in 5% CO2, cells are loaded with 23nl of test compound from the compound library (as well as dopamine controls) using a 1536 pintool and incubated at 37 degrees C for 90 minutes. Two microliters of DiscoveRx reagent is then added to all cells, and they are incubated for an additional 30 - 60 minutes at room temperature. Following incubation, luminescence is measured on a ViewLux CCD-based luminometer reader using a 20 sec exposure time.
Potency is the fitted concentration of half-maximal effect.

SMILES | Potency
O=c1c2cc([N+](=O)[O-])ccc2[nH]c2c([N+](=O)[O-])cc([N+](=O)[O-])cc12 | inconclusive: 39.8 µM
